± gives the uncertainty stated by the source.
B1: Tyrosine-protein kinase ABL1, residues 64 to 120; numbered along this chain, P00519 (parent)
chain: NLFVALYDFVASGDNTLSITKGEKLRVLGYNHNGEWCEAQTKNGQGWVPSNYITPVN

Variants of: B1
Experiment: abundance fitness (aPCA) (normalised: wild type 0, dead -1); higher = more abundant; growth selection in yeast, the domain comes from the species named
Settings: Homo sapiens

Variant | abundance fitness
NLFVALYDFVASGDKTLSITKGEKLRVLGYNHNGEWCEAQTKNGQGWVPSNYITPVN | 0.207 ± 0.065
NLFVALYDFVASGDLTLSITKGEKLRVLGYNHNGEWCEAQTKNGQGWVPSNYITPVN | -0.16 ± 0.084
NLFVALYDFVASGDMTLSITKGEKLRVLGYNHNGEWCEAQTKNGQGWVPSNYITPVN | 0.095 ± 0.079
NLFVALYDFVASGDPTLSITKGEKLRVLGYNHNGEWCEAQTKNGQGWVPSNYITPVN | -0.34 ± 0.12
NLFVALYDFVASGDQTLSITKGEKLRVLGYNHNGEWCEAQTKNGQGWVPSNYITPVN | 0.031 ± 0.083
NLFVALYDFVASGDRTLSITKGEKLRVLGYNHNGEWCEAQTKNGQGWVPSNYITPVN | -0.007 ± 0.084
NLFVALYDFVASGDSTLSITKGEKLRVLGYNHNGEWCEAQTKNGQGWVPSNYITPVN | -0.001 ± 0.07
NLFVALYDFVASGDTTLSITKGEKLRVLGYNHNGEWCEAQTKNGQGWVPSNYITPVN | -0.047 ± 0.081
NLFVALYDFVASGDVTLSITKGEKLRVLGYNHNGEWCEAQTKNGQGWVPSNYITPVN | -0.142 ± 0.072
NLFVALYDFVASGDWTLSITKGEKLRVLGYNHNGEWCEAQTKNGQGWVPSNYITPVN | -0.021 ± 0.091
NLFVALYDFVASGDYTLSITKGEKLRVLGYNHNGEWCEAQTKNGQGWVPSNYITPVN | -0.352 ± 0.19
NLFVALYDFVASGDNILSITKGEKLRVLGYNHNGEWCEAQTKNGQGWVPSNYITPVN | -0.35 ± 0.2
NLFVALYDFVASGDNPLSITKGEKLRVLGYNHNGEWCEAQTKNGQGWVPSNYITPVN | -0.174 ± 0.26
NLFVALYDFVASGDNQLSITKGEKLRVLGYNHNGEWCEAQTKNGQGWVPSNYITPVN | 0.602 ± 0.29
NLFVALYDFVASGDNRLSITKGEKLRVLGYNHNGEWCEAQTKNGQGWVPSNYITPVN | -0.234 ± 0.44
NLFVALYDFVASGDNVLSITKGEKLRVLGYNHNGEWCEAQTKNGQGWVPSNYITPVN | 0.433 ± 0.26
NLFVALYDFVASGDNWLSITKGEKLRVLGYNHNGEWCEAQTKNGQGWVPSNYITPVN | -0.215 ± 0.18
NLFVALYDFVASGDNTASITKGEKLRVLGYNHNGEWCEAQTKNGQGWVPSNYITPVN | -0.089 ± 0.086
NLFVALYDFVASGDNTCSITKGEKLRVLGYNHNGEWCEAQTKNGQGWVPSNYITPVN | -0.059 ± 0.091
NLFVALYDFVASGDNTDSITKGEKLRVLGYNHNGEWCEAQTKNGQGWVPSNYITPVN | -0.765 ± 0.36
NLFVALYDFVASGDNTESITKGEKLRVLGYNHNGEWCEAQTKNGQGWVPSNYITPVN | -0.822 ± 0.095
NLFVALYDFVASGDNTFSITKGEKLRVLGYNHNGEWCEAQTKNGQGWVPSNYITPVN | -0.411 ± 0.37
NLFVALYDFVASGDNTHSITKGEKLRVLGYNHNGEWCEAQTKNGQGWVPSNYITPVN | -0.233 ± 0.081
NLFVALYDFVASGDNTISITKGEKLRVLGYNHNGEWCEAQTKNGQGWVPSNYITPVN | -0.389 ± 0.18

Variant | abundance fitness
NLFVALYDFVASGDNTKSITKGEKLRVLGYNHNGEWCEAQTKNGQGWVPSNYITPVN | -0.455 ± 0.11
NLFVALYDFVASGDNTMSITKGEKLRVLGYNHNGEWCEAQTKNGQGWVPSNYITPVN | 0.125 ± 0.068
NLFVALYDFVASGDNTNSITKGEKLRVLGYNHNGEWCEAQTKNGQGWVPSNYITPVN | -0.308 ± 0.1
NLFVALYDFVASGDNTPSITKGEKLRVLGYNHNGEWCEAQTKNGQGWVPSNYITPVN | -0.4 ± 0.092
NLFVALYDFVASGDNTQSITKGEKLRVLGYNHNGEWCEAQTKNGQGWVPSNYITPVN | -0.318 ± 0.15
NLFVALYDFVASGDNTRSITKGEKLRVLGYNHNGEWCEAQTKNGQGWVPSNYITPVN | -0.369 ± 0.11
NLFVALYDFVASGDNTSSITKGEKLRVLGYNHNGEWCEAQTKNGQGWVPSNYITPVN | -0.827 ± 0.19
NLFVALYDFVASGDNTTSITKGEKLRVLGYNHNGEWCEAQTKNGQGWVPSNYITPVN | -0.155 ± 0.085
NLFVALYDFVASGDNTVSITKGEKLRVLGYNHNGEWCEAQTKNGQGWVPSNYITPVN | -0.165 ± 0.06
NLFVALYDFVASGDNTWSITKGEKLRVLGYNHNGEWCEAQTKNGQGWVPSNYITPVN | -0.051 ± 0.095
NLFVALYDFVASGDNTYSITKGEKLRVLGYNHNGEWCEAQTKNGQGWVPSNYITPVN | 0.148 ± 0.11
NLFVALYDFVASGDNTLCITKGEKLRVLGYNHNGEWCEAQTKNGQGWVPSNYITPVN | 0.027 ± 0.084
NLFVALYDFVASGDNTLDITKGEKLRVLGYNHNGEWCEAQTKNGQGWVPSNYITPVN | -0.025 ± 0.14
NLFVALYDFVASGDNTLEITKGEKLRVLGYNHNGEWCEAQTKNGQGWVPSNYITPVN | -0.267 ± 0.093
NLFVALYDFVASGDNTLFITKGEKLRVLGYNHNGEWCEAQTKNGQGWVPSNYITPVN | 0.038 ± 0.097
NLFVALYDFVASGDNTLGITKGEKLRVLGYNHNGEWCEAQTKNGQGWVPSNYITPVN | -0.067 ± 0.056
NLFVALYDFVASGDNTLHITKGEKLRVLGYNHNGEWCEAQTKNGQGWVPSNYITPVN | -0.024 ± 0.091
NLFVALYDFVASGDNTLIITKGEKLRVLGYNHNGEWCEAQTKNGQGWVPSNYITPVN | -0.012 ± 0.06
NLFVALYDFVASGDNTLKITKGEKLRVLGYNHNGEWCEAQTKNGQGWVPSNYITPVN | -0.307 ± 0.14
NLFVALYDFVASGDNTLLITKGEKLRVLGYNHNGEWCEAQTKNGQGWVPSNYITPVN | -0.15 ± 0.073
NLFVALYDFVASGDNTLMITKGEKLRVLGYNHNGEWCEAQTKNGQGWVPSNYITPVN | -0.011 ± 0.1
NLFVALYDFVASGDNTLNITKGEKLRVLGYNHNGEWCEAQTKNGQGWVPSNYITPVN | -0.71 ± 0.38
NLFVALYDFVASGDNTLPITKGEKLRVLGYNHNGEWCEAQTKNGQGWVPSNYITPVN | -0.054 ± 0.11

Reference: the Human Domainome abundance scans (Beltran et al. 2025)
